According to ChEMBL document CHEMBL4393708, “Pyridinylimidazoles as dual glycogen synthase kinase 3β/p38α mitogen-activated protein kinase inhibitors” (Eur J Med Chem, 2019):

Organism: Homo sapiens
Experiment: Selectivity ratio, Ratio of IC50 for human recombinant full length GSK3alpha to IC50 for human recombinant full length GSK3beta using YRRAAVPPSPSLSRHSSPHQ(pS)EDEEE as substrate preincubated with enzyme for 10 mins followed by substrate and 25 uM ATP addition measured after 60 mins by ADP-Glo luminescence assay

Compound	Ratio IC50
CSc1nc(-c2ccc(F)cc2)c(-c2ccnc(NC(=O)C3CC3)c2)[nH]1	7.5
CCc1nc(-c2ccc(F)cc2)c(-c2ccnc(NC(=O)C3CC3)c2)[nH]1	8.6
